The test system of the test is Ent. faecalis.

Consider one compound from patent US7351687B2, “Antibiotic 107891, its factors A1 and A2, pharmaceutically acceptable salts and compositions, and use thereof” (priority 2003, dated 2008).

≈ marks a conversion by molar mass, not a printed value.

Usually MIC stands for the lowest concentration found to suppress growth. The low end stands for inhibition by little substance, the high end for a need for much substance. The compound `C=C1NC(=O)[C@H](Cc2c[nH]c3ccccc23)NC(=O)[C@H](NC(=O)/C(=C/C)NC(=O)[C@@H](N)C(C)C)CSC[C@@H](C(=O)N[C@H]2C(=O)N3CCC[C@H]3C(=O)NCC(=O)N[C@H](C(=O)N[C@H](C(=O)N[C@@H]3CSC[C@@H]4NC(=O)[C@H](CC(N)=O)NC(=O)[C@@H](CSC[C@@H]5NC(=O)[C@H](Cc6ccccc6)NC(=O)[C@@H](CS/C=C\NC5=O)NC4=O)NC(=O)CNC(=O)CNC(=O)CNC(=O)[C@@H]4CCCN4C3=O)[C@@H](C)O)CS[C@H]2C)NC(=O)[C@H](CC(C)C)NC1=O` [MF-BA-1768β1, reference compound] yielded an MIC of 8 µg/mL (≈ 3.67 µM).
